# According to US20060252774A1, “Regulation of type 5 adenylyl cyclase for treatment of neurodegenerative and cardiac diseases” (priority 2002, published 2006):
# Tested on: striatal AC
# Experiment: D1 or D2 receptor agonist-stimulated AC activity in striatal membrane preparations
# Assay type: biochemical, mouse
# Settings: 10 µM
smiles,measurement,value
CCCN1CCC[C@@H]2Cc3n[nH]cc3C[C@H]21 [Quinpirole],"inhibition of SKF38393-stimulated AC activity, decrease",13.5±1.1%
